Laboratory results as given in patent US4357341A, “Specific irreversible antagonism of histamine receptors by photoaffinity actuated compounds” (priority 1981, dated 1982).

Sequences of proteins named here, by UniProt entry; tags and fusion partners are left off.
UniProt P31389, whole entry: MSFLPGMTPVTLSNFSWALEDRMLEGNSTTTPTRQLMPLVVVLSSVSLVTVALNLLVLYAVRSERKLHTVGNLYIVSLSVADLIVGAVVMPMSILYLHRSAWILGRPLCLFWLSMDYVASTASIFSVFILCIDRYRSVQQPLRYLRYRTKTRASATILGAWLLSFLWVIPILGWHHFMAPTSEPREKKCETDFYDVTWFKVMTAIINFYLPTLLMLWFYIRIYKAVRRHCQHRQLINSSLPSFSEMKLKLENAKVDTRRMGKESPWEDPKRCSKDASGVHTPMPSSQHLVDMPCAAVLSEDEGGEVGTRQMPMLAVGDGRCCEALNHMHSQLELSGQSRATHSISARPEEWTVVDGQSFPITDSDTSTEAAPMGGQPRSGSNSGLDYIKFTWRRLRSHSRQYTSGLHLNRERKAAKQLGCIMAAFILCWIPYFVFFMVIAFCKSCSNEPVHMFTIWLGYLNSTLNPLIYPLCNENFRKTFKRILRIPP

Target: histamine receptor (H1), isolated guinea pig vas deferens (Cavia porcellus, UniProt P31389)
Settings: cimetidine present during photolysis; concentration not given
Description: Adult, albino guinea pigs (250-350 g; Hilltop Lab Animals, Scottdale, PA) were killed by a blow to the head. Vasa deferentia were removed, desheathed and mounted in conventional apparatus for the measurement of isometric contractile responses. Each tissue preparation was bathed in a separate glass, water-jacketed organ chamber containing modified Krebs-Henseleit solution (37° C.) for one hour prior to the beginning of the experiment. The tissues were washed every 15 minutes. Resting tension was 200 mg. Agonist agents were added to the bath with stepwise increases in concentration. The agonists were added at 10 minute intervals and the tissues were exposed to each concentration for 2 minutes; the tissues were washed twice with agonist-free Krebs-Henseleit solution, at 5 minute intervals, between agonist additions.
Effect of AAH after irradiation in the presence of histamine receptor ligands. […] AAH was then added to the test tissue, leaving the control exposed only to ligand, and after a 5-minute incubation, both the test and control tissues were irradiated for 5 minutes. Both tissues were washed twice with fresh Krebs-Henseleit solution to remove all agents, and concentration-response determinations were performed 10 minutes after irradiation.

CN/C(=N/CCSCc1nc[nH]c1C)NC#N [cimetidine]
protection from the effect of photolyzed AAH: weakly protective
